{"sequences": {"note": "Chains of the proteins cited; added tags and fusions are not shown. Residues count along the entry.", "UniProt P08631, whole entry T333F": "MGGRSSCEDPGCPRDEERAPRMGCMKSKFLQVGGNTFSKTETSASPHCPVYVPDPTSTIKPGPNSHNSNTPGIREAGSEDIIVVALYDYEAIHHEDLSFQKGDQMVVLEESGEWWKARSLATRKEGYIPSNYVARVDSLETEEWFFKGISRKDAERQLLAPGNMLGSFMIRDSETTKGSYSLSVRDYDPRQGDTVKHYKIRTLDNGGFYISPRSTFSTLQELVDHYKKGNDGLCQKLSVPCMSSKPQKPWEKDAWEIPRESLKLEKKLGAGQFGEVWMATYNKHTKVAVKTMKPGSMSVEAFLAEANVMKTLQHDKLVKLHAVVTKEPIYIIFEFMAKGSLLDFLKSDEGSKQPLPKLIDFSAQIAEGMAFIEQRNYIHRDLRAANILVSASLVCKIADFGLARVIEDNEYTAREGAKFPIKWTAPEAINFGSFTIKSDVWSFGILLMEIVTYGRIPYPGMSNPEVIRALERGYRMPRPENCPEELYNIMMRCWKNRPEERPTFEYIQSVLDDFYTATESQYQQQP", "UniProt P08631, 23-526 A398S": "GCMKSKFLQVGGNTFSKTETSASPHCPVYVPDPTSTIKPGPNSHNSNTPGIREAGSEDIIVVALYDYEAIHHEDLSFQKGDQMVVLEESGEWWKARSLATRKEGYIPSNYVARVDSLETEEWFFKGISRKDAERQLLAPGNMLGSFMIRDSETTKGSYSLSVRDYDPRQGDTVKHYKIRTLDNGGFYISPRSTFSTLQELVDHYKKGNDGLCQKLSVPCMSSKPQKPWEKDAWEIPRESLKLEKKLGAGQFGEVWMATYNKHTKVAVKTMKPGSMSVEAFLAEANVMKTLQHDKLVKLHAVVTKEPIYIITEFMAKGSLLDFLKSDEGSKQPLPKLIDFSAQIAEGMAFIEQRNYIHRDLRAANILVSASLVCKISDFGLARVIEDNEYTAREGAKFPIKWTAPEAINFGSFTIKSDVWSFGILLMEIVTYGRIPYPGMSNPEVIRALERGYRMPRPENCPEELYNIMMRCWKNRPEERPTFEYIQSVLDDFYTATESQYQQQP", "UniProt P08631, 2-526 A398T": "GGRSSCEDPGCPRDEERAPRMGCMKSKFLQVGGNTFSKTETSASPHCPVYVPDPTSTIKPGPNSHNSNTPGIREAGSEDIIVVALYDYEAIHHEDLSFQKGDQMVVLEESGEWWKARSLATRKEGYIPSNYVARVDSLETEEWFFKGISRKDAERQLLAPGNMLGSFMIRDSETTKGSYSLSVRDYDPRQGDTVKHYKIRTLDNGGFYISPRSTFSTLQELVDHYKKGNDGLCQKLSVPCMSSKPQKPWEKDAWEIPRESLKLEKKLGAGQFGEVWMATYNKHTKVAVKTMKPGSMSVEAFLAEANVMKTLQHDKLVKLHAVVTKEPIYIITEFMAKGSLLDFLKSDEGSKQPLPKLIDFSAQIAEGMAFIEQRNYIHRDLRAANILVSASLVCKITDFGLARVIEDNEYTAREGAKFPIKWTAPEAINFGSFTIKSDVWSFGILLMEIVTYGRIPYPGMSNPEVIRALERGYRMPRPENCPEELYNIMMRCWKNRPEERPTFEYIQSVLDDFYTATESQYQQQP", "UniProt P08631, whole entry T333L": "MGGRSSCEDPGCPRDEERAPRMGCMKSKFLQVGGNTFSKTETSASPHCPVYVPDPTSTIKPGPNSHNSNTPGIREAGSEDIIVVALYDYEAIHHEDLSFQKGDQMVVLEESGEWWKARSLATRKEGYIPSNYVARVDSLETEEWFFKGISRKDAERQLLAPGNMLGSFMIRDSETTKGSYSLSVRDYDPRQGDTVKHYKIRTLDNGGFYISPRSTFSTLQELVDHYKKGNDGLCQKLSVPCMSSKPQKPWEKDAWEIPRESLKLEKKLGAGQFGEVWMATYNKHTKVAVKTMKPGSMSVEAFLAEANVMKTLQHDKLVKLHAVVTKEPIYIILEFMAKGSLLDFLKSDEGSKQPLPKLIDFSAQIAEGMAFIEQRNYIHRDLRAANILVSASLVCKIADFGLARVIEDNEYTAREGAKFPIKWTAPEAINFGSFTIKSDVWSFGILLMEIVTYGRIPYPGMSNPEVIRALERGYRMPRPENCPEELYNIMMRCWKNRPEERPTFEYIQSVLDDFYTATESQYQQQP", "UniProt P08631, whole entry T333M": "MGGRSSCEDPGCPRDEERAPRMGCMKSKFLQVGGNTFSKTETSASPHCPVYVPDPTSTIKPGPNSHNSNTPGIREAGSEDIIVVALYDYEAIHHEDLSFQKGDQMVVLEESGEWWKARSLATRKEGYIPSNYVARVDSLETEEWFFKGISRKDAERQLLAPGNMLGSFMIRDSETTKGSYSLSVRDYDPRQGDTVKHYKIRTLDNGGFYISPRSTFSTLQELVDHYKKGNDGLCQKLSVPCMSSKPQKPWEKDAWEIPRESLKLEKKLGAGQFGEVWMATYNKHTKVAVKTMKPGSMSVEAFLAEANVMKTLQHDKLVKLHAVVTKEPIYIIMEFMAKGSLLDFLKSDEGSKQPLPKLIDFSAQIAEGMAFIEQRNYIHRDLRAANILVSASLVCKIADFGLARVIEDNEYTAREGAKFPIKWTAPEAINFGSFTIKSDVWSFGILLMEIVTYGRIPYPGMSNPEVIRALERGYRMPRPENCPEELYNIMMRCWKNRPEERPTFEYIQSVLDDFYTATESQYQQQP", "UniProt P08631, whole entry T333V": "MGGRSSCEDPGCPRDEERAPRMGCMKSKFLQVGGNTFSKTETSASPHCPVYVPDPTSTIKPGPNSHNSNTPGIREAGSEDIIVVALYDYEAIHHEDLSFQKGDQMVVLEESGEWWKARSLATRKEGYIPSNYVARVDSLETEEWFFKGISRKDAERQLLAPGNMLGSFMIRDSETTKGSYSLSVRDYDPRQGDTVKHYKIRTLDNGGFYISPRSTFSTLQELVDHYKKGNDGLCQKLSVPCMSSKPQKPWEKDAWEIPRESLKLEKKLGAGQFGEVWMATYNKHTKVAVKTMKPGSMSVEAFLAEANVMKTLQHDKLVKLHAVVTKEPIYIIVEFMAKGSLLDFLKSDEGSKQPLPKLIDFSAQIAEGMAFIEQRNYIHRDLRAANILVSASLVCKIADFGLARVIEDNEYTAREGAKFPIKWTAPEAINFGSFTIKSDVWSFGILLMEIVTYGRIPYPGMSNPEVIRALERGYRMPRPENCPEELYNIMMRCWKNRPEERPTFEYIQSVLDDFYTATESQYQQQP", "UniProt P08631, whole entry T333Q": "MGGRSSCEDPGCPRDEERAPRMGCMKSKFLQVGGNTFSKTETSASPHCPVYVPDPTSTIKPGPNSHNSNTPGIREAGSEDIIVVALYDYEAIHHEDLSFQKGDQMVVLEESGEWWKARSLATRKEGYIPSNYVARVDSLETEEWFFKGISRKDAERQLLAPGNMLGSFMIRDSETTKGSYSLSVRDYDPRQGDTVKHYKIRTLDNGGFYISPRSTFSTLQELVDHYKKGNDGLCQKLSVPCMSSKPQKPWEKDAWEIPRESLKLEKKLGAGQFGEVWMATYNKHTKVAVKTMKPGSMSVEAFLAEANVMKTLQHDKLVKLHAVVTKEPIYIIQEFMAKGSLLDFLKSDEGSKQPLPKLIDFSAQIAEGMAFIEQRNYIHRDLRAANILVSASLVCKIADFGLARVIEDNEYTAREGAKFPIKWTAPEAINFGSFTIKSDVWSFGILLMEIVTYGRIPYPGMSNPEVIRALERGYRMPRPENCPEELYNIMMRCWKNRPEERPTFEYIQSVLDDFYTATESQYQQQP", "UniProt P08631, 2-526 A398C": "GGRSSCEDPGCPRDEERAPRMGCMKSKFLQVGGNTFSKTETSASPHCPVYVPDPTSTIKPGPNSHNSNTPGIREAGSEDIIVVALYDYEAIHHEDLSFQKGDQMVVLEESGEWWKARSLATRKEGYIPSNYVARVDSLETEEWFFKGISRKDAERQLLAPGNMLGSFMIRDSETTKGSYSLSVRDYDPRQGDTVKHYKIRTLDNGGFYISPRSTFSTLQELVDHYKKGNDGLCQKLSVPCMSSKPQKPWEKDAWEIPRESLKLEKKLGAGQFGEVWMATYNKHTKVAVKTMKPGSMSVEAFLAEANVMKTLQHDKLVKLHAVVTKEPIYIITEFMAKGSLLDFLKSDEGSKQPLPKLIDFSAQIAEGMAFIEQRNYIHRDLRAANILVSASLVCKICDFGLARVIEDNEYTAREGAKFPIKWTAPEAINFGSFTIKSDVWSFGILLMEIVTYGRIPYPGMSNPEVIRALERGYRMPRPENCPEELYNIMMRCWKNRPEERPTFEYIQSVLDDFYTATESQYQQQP", "UniProt P08631, whole entry T333I": "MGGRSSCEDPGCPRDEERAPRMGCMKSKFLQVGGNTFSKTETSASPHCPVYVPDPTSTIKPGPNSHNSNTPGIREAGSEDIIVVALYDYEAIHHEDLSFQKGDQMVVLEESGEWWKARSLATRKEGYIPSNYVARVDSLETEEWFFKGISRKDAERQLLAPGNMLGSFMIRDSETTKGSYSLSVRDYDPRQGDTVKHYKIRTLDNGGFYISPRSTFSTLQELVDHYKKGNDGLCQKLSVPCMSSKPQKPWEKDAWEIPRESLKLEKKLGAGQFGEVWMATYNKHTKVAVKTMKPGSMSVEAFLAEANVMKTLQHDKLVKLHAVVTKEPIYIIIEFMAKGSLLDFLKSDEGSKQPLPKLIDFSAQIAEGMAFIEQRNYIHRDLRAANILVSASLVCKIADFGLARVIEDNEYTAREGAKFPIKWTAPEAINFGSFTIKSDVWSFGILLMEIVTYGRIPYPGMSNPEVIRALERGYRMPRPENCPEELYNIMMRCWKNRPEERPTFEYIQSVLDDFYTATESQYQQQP"}, "source": "patent US20030162222A1", "about": "“Method for selecting enzyme inhibitors” (priority 2000, published 2003)", "assay_type_in_all_cases": "cell-based", "key": {"[1]": {"biological_target": "T1, Src kinase Hck Thr338Phe (Homo sapiens, UniProt P08631, T333F)", "T1 construct": "expressed in transfected cells; host or cells: Cos7 cells, pApuro vector", "assay": "Tyrosine phosphorylation in Cos7 cells expressing Hck mutant, with/without inhibitor", "conditions": "PP1 incubation prior to lysis"}, "[2]": {"biological_target": "T2, Src kinase Hck Ala403Ser (Homo sapiens, UniProt P08631, A398S)", "T2 construct": "expressed in transfected cells; host or cells: Cos7 cells, pApuro vector", "assay": "Tyrosine phosphorylation in Cos7 cells expressing Hck mutant, with/without inhibitor", "conditions": "PP1 incubation prior to lysis"}, "[3]": {"biological_target": "T3, Src kinase Hck Ala403Thr (Homo sapiens, UniProt P08631, A398T)", "T3 construct": "expressed in transfected cells; host or cells: Cos7 cells, pApuro vector", "assay": "Tyrosine phosphorylation in Cos7 cells expressing Hck mutant, with/without inhibitor", "conditions": "PP1 incubation prior to lysis"}, "[4]": {"biological_target": "T4, Src kinase Hck Thr338Leu (Homo sapiens, UniProt P08631, T333L)", "T4 construct": "expressed in transfected cells; host or cells: Cos7 cells, pApuro vector", "assay": "Tyrosine phosphorylation in Cos7 cells expressing Hck mutant, with/without inhibitor", "conditions": "PP1 incubation prior to lysis"}, "[5]": {"biological_target": "T5, Src kinase Hck Thr338Met (Homo sapiens, UniProt P08631, T333M)", "T5 construct": "expressed in transfected cells; host or cells: Cos7 cells, pApuro vector", "assay": "Tyrosine phosphorylation in Cos7 cells expressing Hck mutant, with/without inhibitor", "conditions": "PP1 incubation prior to lysis"}, "[6]": {"biological_target": "T6, Src kinase Hck Thr338Val (Homo sapiens, UniProt P08631, T333V)", "T6 construct": "expressed in transfected cells; host or cells: Cos7 cells, pApuro vector", "assay": "Tyrosine phosphorylation in Cos7 cells expressing Hck mutant, with/without inhibitor", "conditions": "PP1 incubation prior to lysis"}, "[7]": {"biological_target": "T7, Src kinase Hck Thr338Gln (Homo sapiens, UniProt P08631, T333Q)", "T7 construct": "expressed in transfected cells; host or cells: Cos7 cells, pApuro vector", "assay": "Tyrosine phosphorylation in Cos7 cells expressing Hck mutant, with/without inhibitor", "conditions": "PP1 incubation prior to lysis"}, "[8]": {"biological_target": "T8, wt Src kinase Hck (Homo sapiens, UniProt P08631)", "T8 construct": "expressed in transfected cells; host or cells: Cos7 cells, pApuro vector", "assay": "Tyrosine phosphorylation in Cos7 cells expressing wt Hck, with/without inhibitor (Western blot, PY99)", "conditions": "PP1 incubation prior to lysis (25 μM, 100 μM elsewhere in the source)"}, "[9]": {"biological_target": "T9, Src kinase Hck Ala403Cys (Homo sapiens, UniProt P08631, A398C)", "T9 construct": "expressed in transfected cells; host or cells: Cos7 cells, pApuro vector", "assay": "Tyrosine phosphorylation in Cos7 cells expressing Hck mutant, with/without inhibitor", "conditions": "PP1 incubation prior to lysis"}, "[10]": {"biological_target": "T10, Src kinase Hck Thr338Ile (Homo sapiens, UniProt P08631, T333I)", "T10 construct": "expressed in transfected cells; host or cells: Cos7 cells, pApuro vector", "assay": "Tyrosine phosphorylation in Cos7 cells expressing Hck mutant, with/without inhibitor", "conditions": "PP1 incubation prior to lysis"}}, "data": [{"smiles": "Cc1ccc(-c2nn(C(C)(C)C)c3ncnc(N)c23)cc1", "note": "[PP1]", "values": [{"measurement": "Inhibited by PP1", "setting": "[1]", "result": "not inhibited and remains largely unchanged and could no longer be inhibited and no"}, {"measurement": "Inhibited by PP1", "setting": "[2]", "result": "inhibited and The same applies and yes"}, {"measurement": "Inhibited by PP1", "setting": "[3]", "result": "inhibited and The same applies and yes"}, {"measurement": "Inhibited by PP1", "setting": "[4]", "result": "not inhibited and remains largely unchanged and could no longer be inhibited and no"}, {"measurement": "Inhibited by PP1", "setting": "[5]", "result": "not inhibited and remains largely unchanged and could no longer be inhibited and no"}, {"measurement": "Inhibited by PP1", "setting": "[6]", "result": "inhibited and The same applies and yes"}, {"measurement": "Inhibited by PP1", "setting": "[7]", "result": "not inhibited and remains largely unchanged and could no longer be inhibited and no"}, {"measurement": "Inhibited by PP1", "setting": "[8]", "result": "inhibited and cancels the phosphorylation induced by wt Hck or considerably reduces it and yes"}, {"measurement": "Inhibited by PP1", "setting": "[9]", "result": "inhibited and The same applies and yes"}, {"measurement": "Inhibited by PP1", "setting": "[10]", "result": "not inhibited and remains largely unchanged and could no longer be inhibited and no"}]}]}
